Laboratory results: ChEMBL document CHEMBL1152978 (J Med Chem, 2009)

Columns and labels:
[1] = Chemical stability assessed as half life at pH 7.4 by UV-HPLC analysis; assay type: physicochemical; conditions: buffer
[2] = tested on: Plasma; assay: Metabolic stability in human plasma assessed as elimination half life at pH 7.4; assay type: ADME, cell-free

## O=C(O[C@H]1C[N+]2(CCc3ccccc3)CCC1CC2)C(O)(c1cccs1)c1cccs1.[Br-]
[1]
  t1/2: 56 min
[2]
  beta t1/2: 7.9 min

## C[N+]12CCC(CC1)[C@@H](OC(=O)C(O)(c1cccs1)c1cccs1)C2.[Br-]
[2]
  beta t1/2: 3.6 min
